Test results from ChEMBL document CHEMBL1147795, “cis-2,5-dicyanopyrrolidine inhibitors of dipeptidyl peptidase IV: synthesis and in vitro, in vivo, and X-ray crystallographic characterization” (J Med Chem, 2006).

Protein sequences, listed by entry. Tags and fused reporters are not part of them. Lines headed by an entry give the natural chain unless they say otherwise; changes in a name come on top.
UniProt Q6V1X1: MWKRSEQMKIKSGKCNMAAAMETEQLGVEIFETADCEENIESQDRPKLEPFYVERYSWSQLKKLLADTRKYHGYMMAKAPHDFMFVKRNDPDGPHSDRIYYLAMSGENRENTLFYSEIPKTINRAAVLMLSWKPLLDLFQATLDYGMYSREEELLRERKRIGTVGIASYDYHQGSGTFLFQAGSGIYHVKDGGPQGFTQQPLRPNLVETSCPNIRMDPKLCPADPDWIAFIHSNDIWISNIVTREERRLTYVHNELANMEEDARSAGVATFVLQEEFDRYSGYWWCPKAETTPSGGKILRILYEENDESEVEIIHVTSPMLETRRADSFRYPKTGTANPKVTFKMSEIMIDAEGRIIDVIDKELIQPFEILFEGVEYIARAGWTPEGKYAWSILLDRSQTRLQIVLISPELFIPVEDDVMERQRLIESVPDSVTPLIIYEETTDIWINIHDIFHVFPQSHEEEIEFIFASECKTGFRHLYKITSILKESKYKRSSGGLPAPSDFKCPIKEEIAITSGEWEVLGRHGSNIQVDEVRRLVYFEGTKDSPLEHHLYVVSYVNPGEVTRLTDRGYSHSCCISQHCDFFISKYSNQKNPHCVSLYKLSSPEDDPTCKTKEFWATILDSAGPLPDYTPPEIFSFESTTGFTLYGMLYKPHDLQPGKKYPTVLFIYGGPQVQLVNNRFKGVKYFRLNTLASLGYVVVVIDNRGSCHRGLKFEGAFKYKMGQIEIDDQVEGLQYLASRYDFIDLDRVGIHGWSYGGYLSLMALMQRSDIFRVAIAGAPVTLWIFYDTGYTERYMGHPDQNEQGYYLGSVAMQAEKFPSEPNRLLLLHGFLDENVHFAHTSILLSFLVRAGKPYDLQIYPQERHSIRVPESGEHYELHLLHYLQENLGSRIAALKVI
UniProt Q86TI2: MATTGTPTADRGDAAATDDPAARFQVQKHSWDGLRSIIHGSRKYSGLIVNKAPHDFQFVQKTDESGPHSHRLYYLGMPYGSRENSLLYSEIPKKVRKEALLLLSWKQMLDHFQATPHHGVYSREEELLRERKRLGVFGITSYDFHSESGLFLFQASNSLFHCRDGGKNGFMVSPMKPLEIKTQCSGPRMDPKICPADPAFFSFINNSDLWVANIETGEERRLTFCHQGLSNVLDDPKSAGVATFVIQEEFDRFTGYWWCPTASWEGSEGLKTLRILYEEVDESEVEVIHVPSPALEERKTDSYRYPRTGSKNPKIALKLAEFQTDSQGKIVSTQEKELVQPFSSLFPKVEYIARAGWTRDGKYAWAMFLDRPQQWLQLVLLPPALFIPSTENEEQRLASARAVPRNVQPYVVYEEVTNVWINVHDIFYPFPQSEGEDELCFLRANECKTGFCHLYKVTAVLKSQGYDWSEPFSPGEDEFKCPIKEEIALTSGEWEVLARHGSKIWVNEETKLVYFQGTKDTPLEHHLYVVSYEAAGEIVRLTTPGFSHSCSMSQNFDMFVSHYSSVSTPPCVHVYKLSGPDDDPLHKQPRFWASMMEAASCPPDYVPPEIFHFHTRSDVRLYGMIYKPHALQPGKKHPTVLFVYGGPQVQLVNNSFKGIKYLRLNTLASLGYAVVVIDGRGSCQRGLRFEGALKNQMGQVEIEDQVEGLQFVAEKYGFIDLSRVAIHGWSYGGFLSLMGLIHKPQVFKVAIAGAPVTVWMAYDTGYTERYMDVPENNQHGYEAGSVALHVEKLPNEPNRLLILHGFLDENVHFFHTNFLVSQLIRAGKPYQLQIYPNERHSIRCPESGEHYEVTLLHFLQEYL
UniProt P27487, whole entry: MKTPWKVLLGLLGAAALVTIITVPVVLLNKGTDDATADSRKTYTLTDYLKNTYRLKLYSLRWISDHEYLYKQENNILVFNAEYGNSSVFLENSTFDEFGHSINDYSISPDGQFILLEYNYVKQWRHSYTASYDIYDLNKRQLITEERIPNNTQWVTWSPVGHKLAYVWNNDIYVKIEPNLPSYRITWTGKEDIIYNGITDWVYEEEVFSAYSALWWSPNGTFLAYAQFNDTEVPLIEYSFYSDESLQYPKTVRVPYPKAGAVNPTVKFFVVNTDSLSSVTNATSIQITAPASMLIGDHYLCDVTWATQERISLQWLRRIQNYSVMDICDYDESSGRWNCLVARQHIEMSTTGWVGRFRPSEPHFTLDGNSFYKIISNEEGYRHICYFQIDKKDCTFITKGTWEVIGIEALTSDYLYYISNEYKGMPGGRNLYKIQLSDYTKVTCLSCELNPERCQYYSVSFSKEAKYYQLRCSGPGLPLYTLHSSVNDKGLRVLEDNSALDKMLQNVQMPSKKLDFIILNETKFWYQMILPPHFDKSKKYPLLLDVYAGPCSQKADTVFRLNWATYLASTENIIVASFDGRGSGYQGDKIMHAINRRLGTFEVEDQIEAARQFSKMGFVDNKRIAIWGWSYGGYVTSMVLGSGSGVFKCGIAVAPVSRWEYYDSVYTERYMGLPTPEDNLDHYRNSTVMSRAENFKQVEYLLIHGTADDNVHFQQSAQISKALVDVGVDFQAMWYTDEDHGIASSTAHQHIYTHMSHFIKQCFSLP
UniProt Q9NQW7: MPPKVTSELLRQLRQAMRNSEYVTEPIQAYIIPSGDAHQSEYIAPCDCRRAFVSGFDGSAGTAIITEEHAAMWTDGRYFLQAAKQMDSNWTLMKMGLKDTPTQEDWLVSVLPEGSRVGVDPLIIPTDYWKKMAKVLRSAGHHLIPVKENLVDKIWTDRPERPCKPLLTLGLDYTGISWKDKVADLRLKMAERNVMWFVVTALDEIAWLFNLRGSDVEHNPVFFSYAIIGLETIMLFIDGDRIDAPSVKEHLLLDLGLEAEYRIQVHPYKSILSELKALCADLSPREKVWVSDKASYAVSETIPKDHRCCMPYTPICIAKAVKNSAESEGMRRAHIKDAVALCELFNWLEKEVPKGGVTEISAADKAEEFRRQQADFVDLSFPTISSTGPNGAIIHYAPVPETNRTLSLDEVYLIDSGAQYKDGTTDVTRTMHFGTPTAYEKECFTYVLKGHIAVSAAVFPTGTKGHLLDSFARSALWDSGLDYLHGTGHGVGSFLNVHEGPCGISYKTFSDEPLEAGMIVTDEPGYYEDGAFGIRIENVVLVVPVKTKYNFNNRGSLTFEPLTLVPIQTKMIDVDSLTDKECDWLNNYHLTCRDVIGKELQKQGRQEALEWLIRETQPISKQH

Legend:
Dipeptidyl peptidase 8 = Dipeptidyl peptidase 8 (Homo sapiens, UniProt Q6V1X1); test: Inhibition of DPP8
Dipeptidyl peptidase 9 = Dipeptidyl peptidase 9 (Homo sapiens, UniProt Q86TI2); test: Inhibition of DPP9
Dipeptidyl peptidase 4 = Dipeptidyl peptidase 4 (Homo sapiens, UniProt P27487); test: Inhibition of human recombinant DPP4
Prolyl endopeptidase FAP = molecular target: T1, Prolyl endopeptidase FAP (Homo sapiens, UniProt Q12884); test: Inhibition of FAP
T1 sequence (Q12884 whole entry): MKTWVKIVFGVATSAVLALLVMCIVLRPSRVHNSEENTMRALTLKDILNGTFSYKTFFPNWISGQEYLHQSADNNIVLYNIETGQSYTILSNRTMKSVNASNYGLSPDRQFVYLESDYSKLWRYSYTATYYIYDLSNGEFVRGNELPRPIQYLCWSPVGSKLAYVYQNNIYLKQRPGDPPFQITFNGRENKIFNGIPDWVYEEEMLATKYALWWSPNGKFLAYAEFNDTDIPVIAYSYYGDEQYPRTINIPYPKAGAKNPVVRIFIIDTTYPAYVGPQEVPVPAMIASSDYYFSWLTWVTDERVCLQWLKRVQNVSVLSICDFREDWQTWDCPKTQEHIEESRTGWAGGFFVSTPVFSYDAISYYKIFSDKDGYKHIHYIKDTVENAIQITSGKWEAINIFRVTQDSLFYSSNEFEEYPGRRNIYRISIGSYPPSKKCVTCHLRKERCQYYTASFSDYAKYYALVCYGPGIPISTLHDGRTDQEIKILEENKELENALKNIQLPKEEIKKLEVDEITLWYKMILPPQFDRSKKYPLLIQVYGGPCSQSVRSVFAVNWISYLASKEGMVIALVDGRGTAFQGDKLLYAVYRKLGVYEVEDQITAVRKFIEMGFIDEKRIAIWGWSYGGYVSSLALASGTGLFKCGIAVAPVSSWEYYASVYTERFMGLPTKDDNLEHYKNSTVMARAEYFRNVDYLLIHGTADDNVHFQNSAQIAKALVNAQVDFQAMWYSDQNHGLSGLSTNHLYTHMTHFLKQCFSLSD

Xaa-Pro aminopeptidase 1 = Xaa-Pro aminopeptidase 1 (Homo sapiens, UniProt Q9NQW7); test: Inhibition of APP

| SMILES | IC50 (Dipeptidyl peptidase 8) [µM] | IC50 (Dipeptidyl peptidase 9) [µM] | IC50 (Dipeptidyl peptidase 4) [µM] | IC50 (Prolyl endopeptidase FAP) [µM] | also measured |
| --- | --- | --- | --- | --- | --- |
| N#C[C@@H]1CC[C@H](C#N)N1C(=O)CNC12CC3CC(CC(C3)C1)C2 | > 30 | > 30 | 0.106 |  |  |
| CCOCC1(NCC(=O)N2[C@H](C#N)CC[C@@H]2C#N)CCCC1 | > 30 |  |  |  |  |
| CCCCOCC1(NCC(=O)N2[C@H](C#N)CC[C@@H]2C#N)CCCC1 |  |  |  | > 30 | IC50 (Xaa-Pro aminopeptidase 1): > 30 µM |
| N#C[C@H]1CC[C@H](C#N)N1C(=O)CNC12CC3CC(CC(C3)C1)C2 |  |  | > 30 |  |  |
| N#C[C@@H]1CC[C@H](C#N)N1C(=O)CNC1(CO)CCCC1 | > 30 | > 30 |  |  |  |
| N#C[C@@H]1CC[C@H](C#N)N1C(=O)CNC12CC3CC(CC1C3)C2 |  |  |  | > 30 |  |
